Values quoted from earlier work, collected in US20160175296A1, “Method of producing uniform buprenorphine-containing formulations” (ARx, LLC, priority 2014, published 2016).

Details: reportedly, by reference

Substance: Buprenorphine HCl
- aqueous solubility: 17 mg/mL
